Apparent affinities of Ab-14 variants for a coronavirus HR2 peptide

Data: MIT Lincoln Laboratory AlphaSeq set, Li et al. 2023, doi:10.1038/s41467-023-39022-2, as distributed in FLAb.

All variants were tested on one target, the spike HR2 peptide PDVDLGDISGINAS (SARS-CoV-2).

Parent: Ab-14, a human scFv built as VH, the linker GGGGSGGGGSGGGGS, VL. Only the CDRs of the light chain vary.
VH: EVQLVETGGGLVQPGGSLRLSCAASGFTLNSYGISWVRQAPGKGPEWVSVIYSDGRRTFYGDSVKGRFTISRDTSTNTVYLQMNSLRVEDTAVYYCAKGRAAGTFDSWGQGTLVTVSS
VL: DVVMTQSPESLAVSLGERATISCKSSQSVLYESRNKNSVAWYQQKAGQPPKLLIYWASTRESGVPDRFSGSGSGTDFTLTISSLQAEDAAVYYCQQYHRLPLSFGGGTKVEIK

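The starting antibody came from a phage panning campaign against this peptide. These sequences belong to a second round, designed from the earlier measurements on random variants of the parent. Their group label is 14L_En_HC (En: ensemble of fine-tuned language models; HC: hill climbing; a sequence that several methods proposed may carry one label only). AlphaSeq pools MATa yeast showing the antibodies with MATalpha yeast showing the peptide. Binding brings cells together so that they mate, and sequencing counts the barcode pairs among the diploids. Each replicate has its own calibration line, from reference interactions of the BCL2 family. The assay was run in six technical replicates.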

The parent's light chain CDRs are KSSQSVLYESRNKNSVA, WASTRES, QQYHRLPLS; each variant's own CDRs replace them letter for letter. Affinities are written as log10 Kd with Kd in nM; a lower number is a better binder. "n.d." means that the variant was in the library but no mating with the target was seen in that replicate; the authors take this as a sign of poor binding, and no number exists. Values of this round are not directly comparable with the first-round values of the same sequences.

CDR-L1	CDR-L2	CDR-L3	log10 Kd (nM) by replicate	signal with controls
KLIQSVAMSTRNKDSIA	DNSTRES	QQYHRLPLS	1.86 2.53 1.56 1.85 1.65 1.66	2/18 (2.26)
KLKQLMHIESFNKNNVA	EMTTREK	QSYDRLPLS	0.45 0.41 0.93 1.08 0.63 0.41	0/18
KLLQNVMTEGRMRNNVA	HMDMRED	QQYWRLPLS	0.74 1.04 0.99 0.68 1.81 1.36	0/18
KLGQMTGIESHNKNSLA	DANRRED	QQYHRLPLS	-0.09 -0.16 -0.30 -0.35 -0.34 0.26	0/18
TLTQVQGMESHHKDNVA	DLSTRGN	QQYDRLPLS	3.76 2.27 n.d. 2.39 2.62 3.13	2/18 (2.30)
HISPSFMVESKLKNSVA	QTETRVE	QQYDRLPLS	1.04 0.61 0.52 0.28 0.96 0.45	0/18
KLSGLVNFFGHAINSVA	EMETREN	QQYDRLPLS	0.91 1.62 1.50 1.30 1.71 1.15	0/18
KLSISYLFLSQEKNSIA	ENSTRES	QHYHRLPLS	n.d. n.d. n.d. n.d. n.d. n.d.	0/18
HVSESVFAQSKMRNSVA	ENSTREA	QQYDRLPLS	2.39 2.06 1.65 1.81 1.68 3.45	1/18 (2.71)
KIGSGTNGEKFTSNSVA	QTSTREE	QQYHRLPLS	1.06 0.90 0.19 0.32 0.61 0.68	1/18 (2.34)
KLSLFYRMETRNKDSVA	DNSTRES	QDYDRLPLS	n.d. n.d. n.d. 1.52 n.d. n.d.	0/18
MISDLMLYGSRNANPIA	NASTREY	QQYHRLPLS	0.32 0.12 0.12 -0.06 0.03 0.37	4/18 (2.83)
TLTQSVGMESHNKNSVA	DLSTRGS	QQYNRLPLS	1.11 0.49 0.89 0.38 0.40 0.87	1/18 (2.62)
MISDLTYYGSRNVNSVA	DLSTRGS	QQYHRLPLS	0.23 0.54 0.07 0.30 0.41 0.44	0/18
KISMLQRFESQAKNSIA	EMSRREN	QQYHRLPLS	0.54 0.21 0.23 0.09 0.19 0.40	2/18 (2.75)
ILSQMLLTAGNKHSSVA	QANNRED	QQYHRLPLS	1.69 1.36 1.29 1.35 1.14 1.42	1/18 (2.44)
KIGFVTNGISRNKNSVA	EQSTRES	QQYNRLPLS	0.38 0.34 0.13 -0.04 0.28 0.11	0/18
MIAQGLRGVGRNKNSVA	NAQTREE	QHYHRLPLS	0.41 0.55 0.92 0.72 1.25 0.92	2/18 (2.47)
KISMSYRYESEAKNSIA	EMTTREE	QSYHRLPLS	2.76 1.77 n.d. 1.38 2.42 2.04	0/18
KLHMSTGYESRNKDSIA	DNSTRGR	QQYHRLPLS	-0.40 n.d. 0.09 0.04 0.50 -0.54	0/18
MISQMFEGLQTSKNPVA	QVSTREE	QQYHRLPLS	1.51 0.88 0.93 2.24 n.d. 2.48	0/18
TISQMFLGQSRNRNSVA	QASTRES	QSYDRLPLS	0.73 0.97 1.06 0.61 1.12 1.16	0/18
TISTSMRYESTLKNAIA	NAQTRES	QQYHRLPLS	0.59 0.68 0.65 0.44 0.63 0.66	0/18
KLRQSTLYESRNKNSVA	WASTRES	QQYHRLPLS	0.70 0.11 0.33 0.42 0.24 0.53	3/18 (3.26)
KLSISHQVESINKSNVA	EMVTREY	QQYDRLPLS	2.05 1.98 1.77 1.54 2.36 1.50	3/18 (2.30)
KLRQVTGYESYLKNSVA	QTSTRAS	QDYNRLPLS	1.61 1.72 2.36 0.79 2.11 1.77	0/18
TLVQSVMTGSRTKNSVA	NAETRYD	QHYHRLPLS	0.32 0.14 -0.07 0.12 0.17 0.23	0/18
KISQMVTYESTWHNAIA	QMSEREE	QQYHRLPLS	1.67 n.d. n.d. 0.60 0.56 0.89	0/18
KLRESIHVEMKQKNNVA	DNSTRES	QDYHRLPLS	2.62 1.97 2.56 2.13 2.91 n.d.	0/18
MLLQATMYGERNRNSVA	HASTRED	QQYHRLPLI	1.52 0.63 0.85 0.40 0.69 0.67	0/18
ILSQMLLTAGNKHNSVA	QANYREA	QQYHRLPLS	n.d. 0.75 0.87 n.d. n.d. 2.50	0/18
QLYAVQDMTSKNKNSVA	EQSTREN	QQYDRLPLS	1.35 1.93 n.d. 2.13 1.69 2.26	0/18
KLYQSMGYLSHNKNSIA	DMERREN	QQYHRLPLS	0.24 0.29 0.36 -0.04 0.11 0.23	0/18
HVSETIFAQSKMRNSVA	ENSTRES	QQYDRLPLS	n.d. 1.80 0.80 1.60 2.08 1.95	1/18 (2.11)
LISGVWDYGSRNYNSVA	QTSTRED	QQYDRLPLS	0.59 0.60 0.79 1.09 0.61 1.01	0/18
MLSDLVKMGVRDTNSVA	DNSTRGS	QQYDRLPLS	1.11 1.77 1.58 1.33 1.79 1.65	1/18 (3.02)
MISDLTMYGSRNTNSVA	DLSTRGS	QQYHRLPLS	0.58 0.14 -0.05 0.19 0.05 0.47	1/18 (2.39)
KISQSVNVGTKNKNSLA	EMSTREF	QDYHRLPLS	1.28 0.72 0.53 0.58 0.62 0.78	0/18
HISQMWMLESKNLNNVA	EESTRED	QSYFRLPLS	0.49 0.49 0.66 0.43 0.93 0.81	0/18
VLGTSTLEESRNKNSVA	EMSLRES	QSYNRLPLS	0.77 0.59 0.42 0.51 0.30 0.92	0/18
KLRQSTVIESFQKNNVA	EMTTRES	QSYDRLPLS	1.86 1.33 1.35 1.10 1.40 1.94	0/18
MMSMGYLGGMRAKNNVA	QEETRES	QQYHRLPLI	n.d. n.d. n.d. n.d. n.d. n.d.	0/18
IISQSVMFQQTLINSVA	NAQTRED	QQYHRLPLS	0.76 0.68 0.70 0.46 1.01 0.68	1/18 (3.05)
NIYQSMNFLGRVMNSIA	DASTIWD	QQYHRLPLS	0.08 0.69 -0.29 0.84 0.83 0.53	0/18
MLLQSTWYGERNRNSVA	HASTRED	QQYHRLPLI	1.02 1.23 1.21 1.48 1.85 1.23	2/18 (2.66)
KLSEISHFESKKKNSVA	ENSTREE	QQYDHLPLS	2.25 n.d. 2.86 1.85 1.42 1.68	1/18 (2.89)
TISMSMNWLTRNKNSIA	EESTRDD	QQYDRLPLS	1.44 1.41 1.17 1.21 1.50 1.65	1/18 (3.09)
MFSQSVMYGSFYRNSVA	QTSTRED	QQYDRLPLS	1.71 0.57 0.66 1.21 1.16 0.82	0/18
NFAQMVLTGSTLRNSVA	HASTREE	QQYHRLPLI	0.26 0.87 0.73 0.62 0.57 0.73	0/18

Picked from the list: the 2 lowest averages where every replicate gave a value.

CDR-L1,CDR-L2,CDR-L3,log10 Kd (nM) by replicate,signal with controls
KLGQMTGIESHNKNSLA,DANRRED,QQYHRLPLS,-0.09 -0.16 -0.30 -0.35 -0.34 0.26,0/18
MISDLMLYGSRNANPIA,NASTREY,QQYHRLPLS,0.32 0.12 0.12 -0.06 0.03 0.37,4/18 (2.83)

As a blank, each scFv also met three strains without target: over all light chain designs, 4% of these pairings were detected, typically at 2.64 and seldom below 1.59. The control count says in how many pairings with the empty strains this scFv gave a signal, with their mean in brackets. The authors' rule: three or more of the six replicates give a measured affinity, fewer mean a poor binder. The parent sequence was in this pool as ten entries: three were never detected, three once, and four in most replicates, with averages from 0.34 to 2.37.